The values below are quoted from earlier work in patent publication US20020041897A1, “Compositions for sustained release of antineoplastic taxanes, and methods of making and using the same” (priority 2000, published 2002).

The conditions of this series: dogs; large volume single dose without taxol; cited from earlier work.

As for “polyoxyethylated castor oil [CREMOPHOR EL]”, the toxic effects result is “vasodilation, labored breathing, lethargy, hypotension and death”.
